These results are taken from BindingDB's records for 12747782 (University of California, 2003).

The chains behind the UniProt entries cited, without tags or fusion partners.
UniProt P97266, whole entry, looked up: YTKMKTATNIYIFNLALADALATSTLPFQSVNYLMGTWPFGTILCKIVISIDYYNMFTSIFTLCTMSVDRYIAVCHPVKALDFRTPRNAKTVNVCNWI

For the test, the target named is Mu-type opioid receptor (Cavia porcellus, UniProt P97266). Nature of the test: Agonistic activity towards Opioid receptors in the guinea pig ileum.

Turning to `CC[C@H](C)[C@H](NC(=O)[C@H](CCCNC(=N)N)NC(=O)[C@H](CCCNC(=N)N)NC(=O)[C@H](CC(C)C)NC(=O)[C@H](Cc1ccccc1)NC(=O)[C@@H](C)NC(=O)CNC(=O)[C@@H](N)Cc1ccc(O)cc1)C(=O)N[C@@H](CCCNC(=N)N)C(=O)N1CCC[C@H]1C(=O)N[C@@H](CCCCN)C(N)=O`, the IC50 was 2.4 nM. In other words, the single-digit nanomolar range.
